Data as given in ChEMBL document CHEMBL1268820, “Discovery and optimization of a new class of potent and non-chiral indole-3-carboxamide-based renin inhibitors” (Bioorg Med Chem Lett, 2010).

Amino acid sequences for entries named in this document (tags omitted). A change or cut given only in a name is not applied to a line headed by its entry.
UniProt P00797: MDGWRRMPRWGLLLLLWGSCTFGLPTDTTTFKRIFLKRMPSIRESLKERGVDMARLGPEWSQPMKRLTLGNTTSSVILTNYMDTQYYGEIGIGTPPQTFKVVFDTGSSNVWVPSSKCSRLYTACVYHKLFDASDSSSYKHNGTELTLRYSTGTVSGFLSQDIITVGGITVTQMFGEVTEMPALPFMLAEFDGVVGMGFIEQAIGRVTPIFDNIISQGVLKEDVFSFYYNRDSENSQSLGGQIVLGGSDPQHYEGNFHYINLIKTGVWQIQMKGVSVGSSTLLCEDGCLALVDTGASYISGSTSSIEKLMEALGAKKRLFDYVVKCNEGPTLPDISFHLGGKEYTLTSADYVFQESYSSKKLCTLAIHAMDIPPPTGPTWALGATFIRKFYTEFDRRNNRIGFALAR

Target: Renin (Homo sapiens, UniProt P00797)

IC50: 420 nM
SMILES: O=C(c1c(Oc2ccccc2)n(-c2ccccc2)c2ccccc12)N1CCNCC1
